{"sequences": {"note": "By UniProt entry, the sequences of proteins in these tests, tags left out.", "UniProt P14735, whole entry": "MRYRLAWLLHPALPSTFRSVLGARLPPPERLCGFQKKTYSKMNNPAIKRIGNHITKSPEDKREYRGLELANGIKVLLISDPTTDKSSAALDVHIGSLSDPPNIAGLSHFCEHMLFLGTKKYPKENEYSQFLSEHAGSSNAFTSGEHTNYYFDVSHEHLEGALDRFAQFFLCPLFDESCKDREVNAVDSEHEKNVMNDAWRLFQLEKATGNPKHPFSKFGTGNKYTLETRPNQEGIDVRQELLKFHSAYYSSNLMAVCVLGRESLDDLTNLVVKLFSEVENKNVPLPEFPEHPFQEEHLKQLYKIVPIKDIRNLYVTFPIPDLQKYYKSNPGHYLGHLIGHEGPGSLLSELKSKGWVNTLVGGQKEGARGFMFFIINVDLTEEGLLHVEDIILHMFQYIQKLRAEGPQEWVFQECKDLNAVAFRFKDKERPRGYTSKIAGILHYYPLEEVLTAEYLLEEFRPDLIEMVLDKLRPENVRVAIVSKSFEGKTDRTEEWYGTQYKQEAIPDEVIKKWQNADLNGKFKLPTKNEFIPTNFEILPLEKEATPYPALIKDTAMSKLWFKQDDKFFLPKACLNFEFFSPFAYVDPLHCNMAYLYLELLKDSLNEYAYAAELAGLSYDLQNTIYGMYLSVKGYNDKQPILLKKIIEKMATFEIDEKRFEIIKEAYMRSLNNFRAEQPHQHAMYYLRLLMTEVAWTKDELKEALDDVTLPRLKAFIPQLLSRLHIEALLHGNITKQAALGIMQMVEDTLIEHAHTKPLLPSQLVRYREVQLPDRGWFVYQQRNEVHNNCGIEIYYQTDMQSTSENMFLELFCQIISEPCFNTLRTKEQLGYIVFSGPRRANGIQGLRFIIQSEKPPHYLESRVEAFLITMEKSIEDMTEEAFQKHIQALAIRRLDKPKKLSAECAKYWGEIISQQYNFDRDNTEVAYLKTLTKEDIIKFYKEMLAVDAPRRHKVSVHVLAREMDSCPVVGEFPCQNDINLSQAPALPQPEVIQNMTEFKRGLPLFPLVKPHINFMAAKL"}, "source": "PubChem BioAssay AID434962", "about": "(The Scripps Research Institute Molecular Screening Center, 2010)", "note": "This is a selection; strong and weak results do not stand in their true shares. Some results for these compounds are left out of this collection, so the calls shown say nothing about other tests. The source made the active and inactive calls.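 The calls were made as follows: active = percent inhibition above the average of all tested compounds plus 3 SD, set per screening campaign (cut at about 16% in these data); inactive = the rest.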"}
{"target": "Insulin-degrading enzyme (Homo sapiens) (UniProt P14735)", "assay": "cellular IDE Abeta-cleavage inhibition – fluorescence polarization, HEK cells, FAbetaB substrate, primary screen (AID 434962);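 also: IDE supplied by intact live HEK cells; FP after avidin binding of uncleaved biotin substrate so inhibition keeps polarization high; 0% = DMSO wells and 100% = 60 µM reference IDE inhibitor Ii1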", "details": "at 5.59 µM, hits give high values"}
{"smiles": "O=C(NCC1(N2CCCCC2)CCCCC1)c1cccc(Cl)c1", "inhibition": "inactive: 2.92%"}
{"smiles": "COc1ccc(Cl)cc1C(=O)NCC1(N(C)C)CCCCC1", "inhibition": "inactive: 0.35%"}
{"smiles": "COc1cccc(C(=O)NCC2(N3CCCCC3)CCCCC2)c1", "inhibition": "inactive: 2.67%"}
{"smiles": "COc1cc(C(=O)NCC2(N(C)C)CCCCC2)c([N+](=O)[O-])cc1OC", "inhibition": "inactive: -0.23%"}
{"smiles": "CN(C)C1(CNC(=O)c2ccc(Br)cc2)CCCCC1", "inhibition": "inactive: -1.49%"}
{"smiles": "CC(C)Oc1ccc(C(=O)NCC2(N(C)C)CCCCC2)cc1", "inhibition": "inactive: 0.28%"}
{"smiles": "CN(C)c1cccc(C(=O)NCC2(N(C)C)CCCCC2)c1", "inhibition": "inactive: 1.23%"}
{"smiles": "COc1ccc(Br)c(C(=O)NCC2(N3CCCCC3)CCCCC2)c1", "inhibition": "inactive: 2.3%"}
{"smiles": "O=C(OC1CN2CCC1CC2)C(CO)(c1ccccc1)c1ccccc1", "note": "(centres undefined)", "inhibition": "inactive: 0.64%"}
{"smiles": "Cc1ccc(C(=O)NCC2(N3CCCCC3)CCCCC2)cc1", "inhibition": "inactive: -1.57%"}
{"smiles": "COc1cc(SC)ccc1C(=O)NCC1(N(C)C)CCCCC1", "inhibition": "inactive: 1.98%"}
{"smiles": "CCN(CC)CC(C)C(C)OC(=O)C(O)(c1ccccc1)c1ccccc1", "note": "(centres undefined)", "inhibition": "inactive: -2.28%"}
{"smiles": "CC(C)N1C(=O)CC2(CCN(CCOC(=O)C(O)(c3ccccc3)c3ccccc3)CC2)C1=O", "inhibition": "inactive: -2%"}
{"smiles": "CN1[C@@H]2CC[C@H]1CC(OC(=O)C(O)(c1ccccc1)c1ccccc1)C2", "note": "(some centres undefined)", "inhibition": "inactive: 2.04%"}
{"smiles": "O=C(NCC1(N2CCCCC2)CCCCC1)c1cc([N+](=O)[O-])ccc1Cl", "inhibition": "inactive: 6.53%"}
{"smiles": "COc1ccc(C(=O)NCC2(N(C)C)CCCCC2)cc1", "inhibition": "inactive: -0.27%"}
{"smiles": "O=C(NCC1(N2CCCCC2)CCCCC1)c1cccc(Br)c1", "inhibition": "inactive: -4.24%"}
{"smiles": "CCN1CCCC(OC(=O)C2(O)c3ccccc3C=Cc3ccccc32)C1", "note": "(centres undefined)", "inhibition": "inactive: -1.26%"}
{"smiles": "Cc1cc(C(=O)NCC2(N3CCCCC3)CCCCC2)ccc1[N+](=O)[O-]", "inhibition": "inactive: 3.58%"}
{"smiles": "O=C(NCC1(N2CCCCC2)CCCCC1)c1cc(F)c(F)cc1Cl", "inhibition": "inactive: -2.52%"}
{"smiles": "C=CCN1CCN(CCOC(=O)C(O)(c2ccccc2)c2ccccc2)CC1", "inhibition": "inactive: 7.81%"}
{"smiles": "CN(C)c1ccc(C(=O)NCC2(N(C)C)CCCCC2)cc1", "inhibition": "inactive: 4.56%"}
{"smiles": "CN(C)C1CCCC1OC(=O)C(O)(c1ccccc1)c1ccccc1", "note": "(centres undefined)", "inhibition": "inactive: -3.79%"}
{"smiles": "Cc1ccccc1C(=O)NCC1(N2CCCCC2)CCCCC1", "inhibition": "inactive: 7.15%"}
